{
  "source": "patent US10526294B2",
  "about": "“Pyrrolobenzodiazepines and conjugates thereof” (priority 2016, dated 2020)",
  "tested_on": "SKBR3 cells",
  "experiment": "Cell viability assay (CellTiter-Glo), SKBR3",
  "assay_type": "cell-based",
  "details": "Homo sapiens, SK-BR-3; conjugates (Table II); HER2 expressing cells; 72 h",
  "procedure": "Cell Viability Assay for Antibody-Polymer-Drug Conjugates.\nPBD compounds and conjugates thereof were evaluated for their antiproliferation properties in tumor cell lines in vitro using CellTiter-Glo® (Promega Corp). Cells were plated in black walled 96-well plate and allowed to adhere overnight at 37° C. in a humidified atmosphere of 5% CO2. BT474, SKBR3, NCI-N87 cells (HER2 expressing cells), JIMT1 cells (HER2 medium expression level cells) and MCF7 cells (HER2 low expressing levels cells) and were plated at a density of 5,000 cells per well. The next day the medium was replaced with 50 μL fresh medium and 50 μL of 2× stocks of PBD compounds or antibody-PBD conjugate were added to appropriate wells, mixed and incubated for 72 h. CellTiter-Glo® reagent was added to the wells at room temperature and the luminescent signal was measured after 10 min using a SpectraMax M5 plate reader (Molecular Devices). Dose response curves were generated using SoftMax Pro software. IC50 values were determined from four-parameter curve fitting.",
  "data": [
    {"smiles": "C=C1CC2C=Nc3cc(OCCCC(=O)Nc4cn(C)c(C(=O)Nc5ccc(-c6cc(C(=O)n7ccc8cc(C(=O)OC)ccc87)n(C)c6)cc5)n4)c(OC)cc3C(=O)N2C1", "note": "(stereo not shown) [Compound 109, methyl 1-(4-(4-(4-(4-((7-methoxy-2-methylene-5-oxo-2,3,5,11a-tetrahydro-1H-benzo[e]pyrrolo[1,2-a][1,4]diazepin-8-yl)oxy)butanamido)-1-methyl-1H-imidazole-2-carboxamido)phenyl)-1-methyl-1H-pyrrole-2-carbonyl)-1H-indole-5-carboxylate]", "values": [
      {"measurement": "IC50", "result": 0.31, "unit": "nM"}
    ]}
  ]
}
